# According to patent US20130115671A1, “ENZYMES FROM CONIDIOBOLUS BREFELDIANUS AND PROCESS FOR PREPARATION THEREOF” (Council of Scientific and Industrial Research, priority 2010, published 2013):
# Where two headings read alike, the source gives them in different places.
# System: protease from Conidiobolus brefeldianus MTCC 5185
# Description: This example illustrates the stability of the protease in presence of salts. […] Aliquots were removed at regular intervals of 30 min and residual activity was estimated at 50° C., pH 9.
substance,measurement,setting,value
Ammonium sulphate [(NH4)2SO4],Residual Activity (%) of protease at 50° C.,"10 mM CaCl2, 0.5M NaCl, 0.5M glycine or 15% (NH4)2SO4, 0 min",100.00%
same,Residual Activity (%) of protease at 50° C.,"salt concentration as in column head, 30 min",82.27%
same,Residual Activity (%) of protease at 50° C.,"salt concentration as in column head, 60 min",71.87%
same,Residual Activity (%) of protease at 50° C.,"salt concentration as in column head, 90 min",64.72%
same,Residual Activity (%) of protease at 50° C.,"salt concentration as in column head, 120 min",60.25%
same,Residual Activity (%) of protease at 50° C.,"salt concentration as in column head, 180 min",55.19%
same,Residual Activity (%) of protease at 50° C.,"salt concentration as in column head, 180 min, listed as ammonium sulphate",around 55%
